Target: Tyrosine-protein kinase JAK1 (Homo sapiens, UniProt P23458)
Assay: HTRF Biochemical Assay
Conditions: 25 °C

By UniProt entry, the sequences of proteins in these tests, tags left out. Where a name states a change or a piece, a line headed by the entry shows the natural chain unless it says otherwise.
UniProt P23458: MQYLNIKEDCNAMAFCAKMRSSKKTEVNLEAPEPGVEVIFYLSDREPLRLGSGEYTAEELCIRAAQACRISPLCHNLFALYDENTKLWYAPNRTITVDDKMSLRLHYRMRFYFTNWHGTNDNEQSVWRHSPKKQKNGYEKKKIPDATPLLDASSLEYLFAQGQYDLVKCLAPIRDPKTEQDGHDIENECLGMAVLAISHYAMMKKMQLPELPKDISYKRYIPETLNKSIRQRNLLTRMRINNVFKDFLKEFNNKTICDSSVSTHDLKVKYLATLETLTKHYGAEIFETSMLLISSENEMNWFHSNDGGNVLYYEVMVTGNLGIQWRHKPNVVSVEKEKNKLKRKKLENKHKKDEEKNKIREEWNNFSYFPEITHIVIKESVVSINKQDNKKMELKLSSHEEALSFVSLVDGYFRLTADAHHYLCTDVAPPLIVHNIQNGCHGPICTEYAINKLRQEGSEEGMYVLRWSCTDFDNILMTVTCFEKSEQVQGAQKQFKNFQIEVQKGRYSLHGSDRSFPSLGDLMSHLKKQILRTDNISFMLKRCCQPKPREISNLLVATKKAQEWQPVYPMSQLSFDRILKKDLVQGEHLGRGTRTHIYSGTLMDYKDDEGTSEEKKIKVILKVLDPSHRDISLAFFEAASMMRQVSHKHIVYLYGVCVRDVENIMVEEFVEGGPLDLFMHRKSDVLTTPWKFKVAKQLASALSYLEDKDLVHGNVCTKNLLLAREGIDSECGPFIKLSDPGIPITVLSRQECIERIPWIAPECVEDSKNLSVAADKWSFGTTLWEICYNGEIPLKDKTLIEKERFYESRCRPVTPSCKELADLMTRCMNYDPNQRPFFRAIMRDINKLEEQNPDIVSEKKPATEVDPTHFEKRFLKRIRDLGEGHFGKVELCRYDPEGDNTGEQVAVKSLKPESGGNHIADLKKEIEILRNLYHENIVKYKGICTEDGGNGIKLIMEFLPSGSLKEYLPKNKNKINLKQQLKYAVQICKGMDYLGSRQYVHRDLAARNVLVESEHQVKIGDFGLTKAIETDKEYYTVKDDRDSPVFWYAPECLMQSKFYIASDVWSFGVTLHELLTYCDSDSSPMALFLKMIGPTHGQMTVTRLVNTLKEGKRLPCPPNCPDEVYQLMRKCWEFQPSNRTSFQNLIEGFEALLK

With `COC1(c2nc3nc(-c4noc(=O)[nH]4)nc(-c4cncc(Cl)c4)c3n2C[C@H]2CC[C@H](C)CC2)CCCCC1` [US9328099, 48-2] the IC50 was 1 nM.
